The subject of the experiment is liver cancer cell line. Nature of the experiment: VEGFR2 inhibitors in combination with the SGLT1 inhibitor on the liver cancer cell line (Example 2). The class given is cell-based. The procedure: Dimethyl sulfoxide (DMSO) can dissolve formazan in cells, and its light absorption value measured at 570 nm wavelength with an enzyme-linked immunodetector can indirectly reflect the number of living cells. Cell growth was determined by 3-(4,5-dimethylthiazol-2-yl)-2,5-diphenyltetrazolium bromide (MTT) assay in a 96-well plate. Specifically, the cells were digested and counted, and then resuspended into a system containing 5000 cells per 200 μL of culture medium and seeded in each well of a 96-well plate. The next day, the medium was replaced with a medium containing different concentrations of sotagliflozin, apatinib, lenvatinib, and the composition of them. After 48 or 72 hours of incubation with the drugs, 20 μL of MTT reagent was added to each well and incubated for 2 hours. After discarding the medium, the formazan deposit in the cells was dissolved in 100 μL of DMSO. The absorbance was measured at 570 nm by a microplate reader. Samples were used in quadruplicate in each group.

Consider `CCN(CC)CCNC(=O)c1c(C)[nH]c(/C=C2\C(=O)Nc3ccc(F)cc32)c1C` [sunitinib malate], for which the “tumor suppressive effect in combination with the SGLT1 inhibitor compared with single agent” value is given as “better tumor suppressive effect than as a single agent”.

In the case of `CNC(=O)c1cc(Oc2ccc(NC(=O)Nc3ccc(Cl)c(C(F)(F)F)c3)cc2)ccn1` [sorafenib], the “tumor suppressive effect in combination with the SGLT1 inhibitor compared with single agent” value is listed as “better tumor suppressive effect than as a single agent”.

The values are drawn from US12029776B2, “Composition for treating cancer and use and medicament thereof” (NEWISH TECHNOLOGY (BEIJING) CO., LTD., priority 2020, dated 2024).
